Reference: patent EP4831212A1, “FIBROBLAST ACTIVATION PROTEIN-ALPHA-RESPONSIVE HYDROLYSIS-INDUCED CHARGE-REVERSAL POLYMER-DRUG CONJUGATE, PREPARATION METHOD THEREFOR AND USE THEREOF” (dated 2026)

Test system: 4T1 breast cancer tumor-bearing mice
Assay: Tumor inhibition assay
Settings: tail vein injection, days 1, 4, 7, 10 and 13, versus PBS blank group
Description: (§1) The tumor inhibitory effect of MMAE-conjugated polymers in 4T1 breast cancer tumor-bearing mice was investigated. The assay was initiated when the tumor volume reached approximately 100 mm^3. MMAE (free drug) and two drug-conjugated polymer injections were prepared. A PBS buffer was used as a blank group. The drugs were administered via tail vein injection at an MMAE-equivalent dose of 0.2 mg/kg, with an injection volume of 100 µL per mouse each time. The mice were administered on days 1, 4, 7, 10 and 13 for a total of five times. On days 1, 3, 5, 7, 9, 11, 13 and 15, the body weights of the mice were weighed, and the tumor volumes of the mice were measured.
as §1, with “CPT-conjugated” for “MMAE-conjugated”, “The CPT free drug” for “MMAE (free drug)”, “a CPT-equivalent” for “an MMAE-equivalent”, “5” for “0.2”
as §1, with “of CPT-conjugated” for “of MMAE-conjugated”, “approximately 70” for “approximately 100”, “mm^3. The CPT free drug” for “mm^3. MMAE (free drug)”, “at a CPT-equivalent” for “at an MMAE-equivalent”, “of 5” for “of 0.2”

SMILES	tumor inhibitory effect (CPT-equivalent dose of 5 mg/kg, start at tumor volume approximately 70 mm^3, FIG. 10)	tumor inhibitory effect (CPT-equivalent dose of 5 mg/kg, start at tumor volume approximately 100 mm^3, FIG. 7)	tumor inhibitory effect (MMAE-equivalent dose of 0.2 mg/kg, start at tumor volume approximately 100 mm^3, FIG. 3)
CC[C@@]1(O)C(=O)OCc2c1cc1n(c2=O)Cc2cc3ccccc3nc2-1	inhibit the growth of the tumor to a certain degree	inhibits the growth of the tumor to a certain extent	
CC[C@H](C)[C@@H]([C@@H](CC(=O)N1CCC[C@H]1[C@H](OC)[C@@H](C)C(=O)N[C@H](C)[C@@H](O)c1ccccc1)OC)N(C)C(=O)[C@@H](NC(=O)[C@@H](NC)C(C)C)C(C)C			inhibit the growth of the tumor to a certain degree
